Measurements: patent USRE40033E1, “Process for preparing 2-methyl-thieno-benzodiazepine” (Eli Lilly and Company, priority 1991, dated 2008)

Assay: in vivo
Conditions: rat

**Q.** For `Cc1cc2c(s1)Nc1ccccc1N=C2N1CCN(C)CC1`, which ED50 is on record?
**A.** 39.4 mg/kg
